Test results reported in US4764515A, “Antitussive and central sedative composition of d-isomer of 3-(4-phenyl-1-piperazinyl)-1,2-propanediol” (priority 1983, dated 1988).

Test system: Central Nervous System
Test: Activity on the Central Nervous System (overall statement)
Type: in vivo
Conditions: in words; versus racemic mixture
Description: Tests have been carried out to determine the CNS activity, by evaluating the influence on the sleeping time induced by barbiturates in the mouse, according to the method of F. M. Berger "Methods in Drug Evaluation" Proc. Int. Symp. Milan, September 1965, North Holland Pubbl. Co., and by recording the electroencephalographic and electromiographic curves in the rat with chronically implanted electrodes, calculating the time (in seconds) in the awakening and sleeping condition (including synchronized and unsynchronized sleep).
The compounds under exam have been administered orally, in the sleeping time test 30 minutes before the i.p. injection of 35 mg/kg of secobarbital, while in the electroencephalographic test at the beginning of recording.

OC[C@@H](O)CN1CCN(c2ccccc2)CC1 [(-), (-)-dropropizine]
selectivity of the activity / undesired side-effects: much more selective, with lower undesired side-effects
